# Experiments:
# [1] = test system: Human breast cancer cell lines (SK-Br-3-, MCF-7-, BT474 cells) with expression of the HER2 surface antigen; assay: Cell-specific absorption of anti-HER2-antibody-modified nanoparticles in breast cancer cells (FACS, CLSM); type: cell-based; settings: 100 μg/ml, 3 hours, FACS and CLSM (FIG. 2)
# SK-Br-3 cells = assay: Control: absorption after pre-incubation of the cells with free Trastuzumab (FACS, CLSM); type: cell-based, human; settings: SK-Br-3 cells pre-incubated 30 minutes with 2.5 μg/ml free Trastuzumab per 2×10^5 cells
# Protocol: On the one hand, nanoparticles were used which were not loaded with a specific antibody. On the other hand, the experiments were made with MCF-7 cells (normal BER2 expression). Furthermore, control experiments were carried out with SK-Br-3 cells which were pre-incubated for 30 minutes with 2.5 μg/ml free anti-BER2 antibodies (Trastuzumab) per 2×10^5 cells. After this period, the nanoparticles loaded with the anti-HER2 antibody were added. The cellular absorption was evaluated qualitatively by confocal microscopy as well as quantitatively by flow cytometry.
substance,measurement,setting,value
"Trastuzumab-modified nanoparticles: Gelatine A nanoparticles, NeutrAvidin-modified, loaded with biotinylated antibody Trastuzumab (Herceptin)",cellular absorption of nanoparticles,[1],cellularly absorbed
same,cellular absorption after treatment of the cells with free specific antibody,SK-Br-3 cells,could be prevented

# From US20080095857A1, “Carrier system in the form of protein-based nanoparticles for the cell-specific enrichment of pharmaceutically active substances” (LTS LOHMANN THERAPIE-SYSTEME AG LOHMANNSTRASSE 2, priority 2004, published 2008)
